Most compounds without a hit are left out; they make up all but 2.8% or so of the library.
Statin myotox sup – suppressors of simvastatin-induced myotoxicity in C2C12 myotubes; ATP luminescence, 48 h; scaled: DMSO 0, geranylgeraniol control 100; rescue of ATP level, % at 7.49 µM; 330,000 tested, 0.78% active;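 active means mean ATP rescue above about 67%, or every replicate alone reaching that limit, limit read from the data, passing the limit was not always enough; inconclusive means no clear call, values can overlap the other calls; inactive means mean under the limit and some replicate under it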;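 further: myotubes were challenged with 10 µM simvastatin during compound exposure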
E-sel inducer – E-selectin induction on HUVECs | HUVEC E-selectin immunofluorescence imaging; normalized: neutral wells 0, TNF-alpha wells 100 | 260,000 tested, 0.37% active | AID 686992 | P16581 | activation, % at 7.58 µM;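 active means mean E-selectin-positive cell signal at least 10% of the positive control, reached in at least 60% of replicates, without over 20% cell loss; inconclusive means no rule given, readout overlaps actives, possibly toxicity-flagged; inactive means the rest, including those meeting only one limit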
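assay system = HUVEC, human umbilical vein endothelial cells | input = 3,000 HUVEC seeded per well | medium = EGM-2 growth medium on 0.1% gelatin-coated wells | dosing = one compound dose added by pin transfer | signal = immunofluorescence imaging | read-out basis = % PE-positive cells | control set = TNF-alpha, DMSO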
PGC1a acetyl inh – modulators of PGC1a acetylation | U2OS PGC1a acetylation, AlphaScreen anti-acetyl-lysine; with virally co-expressed GCN5 acetyltransferase | inhibition, % at 15.6 µM | 350,000 tested, 0.17% active;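 active means every replicate shows inhibition of at least 40%; inconclusive means mean inhibition at least 40% but some replicate below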;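 further: 0% = neutral control wells and 100% = positive control wells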
Yeast UUG start – alters start codon recognition fidelity in yeast; S. cerevisiae UUG-firefly luciferase reporter, luminescence/redox ratio; activity score, % at 18.7 µM; actives 0.13% (n = 350,000); AID 602363;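 active = replicate mean at a twofold rise or more, about +100% in these data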;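 also: firefly luciferase made from a UUG start codon reports start codon fidelity; reporter light over untreated wells divided by growth signal over untreated wells; some hits fall short of that in this replicate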
PglD inh – blocks C. jejuni PglD acetyltransferase activity | purified PglD enzyme, DTNB colorimetric CoA detection | inhibition, % at 12.5 µM | 360,000 tested, 0.098% active; in the data active means inhibition above about 16%, passing the limit was not always enough; inconclusive means no clear call, values can overlap the other calls
esBAF inh – inhibitors of esBAF chromatin remodeling in mouse ES cells | Bmi1-luciferase knock-in reporter, 24 h; 100% = twice the neutral-well signal | 350,000 tested, 2% active | reporter increase, % at 12.5 µM; in the data active means activation above about 40%; inconclusive means no clear call, values can overlap the other calls;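 further: 0% = median of the plate's neutral control wells and 100% = double that signal; a rise in the Bmi1 reporter signal indicates esBAF inhibition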
An asterisk follows results filed as active; ? = inconclusive; / = no result given.

SMILES | Statin myotox sup | E-sel inducer | PGC1a acetyl inh | Yeast UUG start | PglD inh | esBAF inh
O=C(CSc1ncn(-c2ccccc2)n1)c1cccs1 | -7.8 | / | -11.2 | -15.3 | -4.7 | 64.2*
CCN(CC)C(=S)SCC(=O)c1ccc(Br)cc1 | -6.0 | -0.2 | 5.5 | -18.2 | 3.9 | 83.2*
Cc1noc(C)c1-c1ccc(C(=O)Nc2cccc(C(F)(F)F)c2)c2occc12 | -5.9 | 1.6 | -5.5 | -6.9 | -3.7 | 52.9*
Nc1ncnc2nc(SCc3ccccc3)[nH]c12 | 98.8* | / | -7.6 | 11.0 | -1.2 | 1.0
Nc1ncnc2nc(-c3ccccc3)[nH]c12 | -20.8 | -0.1 | -7.9 | -8.4 | 0.9 | 1.0
CCNC(=O)Nc1ccc2c(c1)C(=O)N(C)[C@@H]1CC[C@@H](CC(=O)NCc3cccc(F)c3)O[C@H]1CO2 | 1.0 | -0.1 | -6.2 | -3.8 | -0.5 | -1.4
COn1c(-c2ccccc2)nc2ncccc21 | -0.4 | 0.3 | 6.7 | -14.0 | -5.1 | 2.2
O=[N+]([O-])c1ccc2nc(-c3ccccc3)n(OCc3ccc(Cl)cc3)c2c1 | -13.6 | / | -1.6 | -0.7 | -1.9 | 62.2*
COn1c(-c2ccccc2)nc2ccc(Cl)cc21 | -7.9 | / | -4.9 | -15.8 | -4.9 | 65.4*
O=[N+]([O-])c1ccc(COn2nnc3ccccc32)cc1 | / | -0.4 | 0.5 | / | / | /
COCC(=O)Nc1ccc2c(c1)C(=O)N(C)[C@H]1CC[C@H](CC(=O)Nc3ccccc3F)O[C@@H]1CO2 | -0.2 | / | 3.6 | -9.7 | -1.8 | -2.6
C[C@@H]1CN([C@@H](C)CO)C(=O)Cc2cc(NC(=O)Nc3ccc(F)cc3)ccc2O[C@@H]1CN(C)Cc1ccc(C(F)(F)F)cc1 | -55.3 | 11.8 | -3.6 | / | / | 2.7

For convenience, some entries already given.
SMILES | Statin myotox sup | E-sel inducer | PGC1a acetyl inh | Yeast UUG start | PglD inh | esBAF inh
COCC(=O)Nc1ccc2c(c1)C(=O)N(C)[C@H]1CC[C@H](CC(=O)Nc3ccccc3F)O[C@@H]1CO2 | -0.2 | / | 3.6 | -9.7 | -1.8 | -2.6
C[C@@H]1CN([C@@H](C)CO)C(=O)Cc2cc(NC(=O)Nc3ccc(F)cc3)ccc2O[C@@H]1CN(C)Cc1ccc(C(F)(F)F)cc1 | -55.3 | 11.8 | -3.6 | / | / | 2.7

In the list so far, these have a Cl atom.
SMILES | Statin myotox sup | E-sel inducer | PGC1a acetyl inh | Yeast UUG start | PglD inh | esBAF inh
O=[N+]([O-])c1ccc2nc(-c3ccccc3)n(OCc3ccc(Cl)cc3)c2c1 | -13.6 | / | -1.6 | -0.7 | -1.9 | 62.2*
COn1c(-c2ccccc2)nc2ccc(Cl)cc21 | -7.9 | / | -4.9 | -15.8 | -4.9 | 65.4*

Part of the list above, limited to esBAF inh, Statin myotox sup and E-sel inducer:
Compound | esBAF inh | Statin myotox sup | E-sel inducer
Nc1ncnc2nc(-c3ccccc3)[nH]c12 | 1.0 | -20.8 | -0.1
CCNC(=O)Nc1ccc2c(c1)C(=O)N(C)[C@@H]1CC[C@@H](CC(=O)NCc3cccc(F)c3)O[C@H]1CO2 | -1.4 | 1.0 | -0.1

Additional results:
SMILES | Statin myotox sup | E-sel inducer | PGC1a acetyl inh | Yeast UUG start | PglD inh | esBAF inh
CCOc1ccc(S(=O)(=O)NCC(=O)N(C)Cc2cccnc2)cc1 | 108.6* | / | 9.1 | -18.9 | 3.9 | -0.4
CN1/C(=C/C(=O)c2nc(S(C)(=O)=O)ncc2Cl)C(C)(C)c2ccccc21 | / | / | 83.4* | / | / | /
N#CC(c1ccc(Cl)cc1)c1ccc(Cl)nn1 (configuration not stated) | 106.0* | / | -9.8 | -11.2 | -4.8 | -1.6
COCC#Cc1cnc2c(c1)C(=O)N([C@@H](C)CO)C[C@H](C)[C@H](CN(C)Cc1ccc(F)cc1)O2 | 8.6 | 1.0 | 3.8 | -8.2 | -0.8 | -0.5
CCOC(=O)c1ccc(N2C(=O)CC(N3CCC(O)(c4ccc(Br)cc4)CC3)C2=O)cc1 (configuration not stated) | / | / | 47.2* | / | / | /
O=C(NCCOc1ccccc1)c1cncc(Br)c1 | -3.3 | / | / | -5.2 | -4.1 | 27.4
Cc1ccccc1C(=O)NCCSc1ccccc1 | -1.2 | / | -0.8 | -17.3 | 8.2 | 55.3*
O=C(NCCSc1ccccc1)c1cncc(Br)c1 | 10.3 | / | -11.1 | / | / | 76.1*
CCc1csc(N2[C@H](C#N)[C@H](c3ccccc3C3=CCCC3)[C@H]2CO)n1 | / | -0.1 | -16.9 | / | / | /
CO[C@H]1CN(C)C(=O)c2cc(NS(C)(=O)=O)ccc2OC[C@H](C)N(C(=O)CC2CC2)C[C@@H]1C | -1.0 | -0.3 | -3.5 | -21.6 | -2.2 | 0.2
CCOC(=O)C1CCCN(C(=O)c2cc(S(=O)(=O)N(C)C)ccc2N2CCCC2)C1 (configuration not stated) | 2.9 | 428.1* | -6.2 | -10.4 | -5.2 | 2.0
O=C(/C=C/c1ccccc1)NC(=S)NNC(=O)Cc1cccs1 | 104.1* | / | -16.7 | -21.1 | 0.8 | 1.3
COc1ccc(/C=C/C(=O)NC(=S)NNC(=O)Cc2cccs2)cc1 | / | / | -5.6 | / | / | /
CN1C(=O)c2ccc(N(C)C)cc2C1=O | 109.2* | / | -2.2 | -2.4 | -2.3 | 3.7
Cc1cccc(C2NC(=O)c3c(sc(C)c3C)N2)c1O (configuration not stated) | 1.1 | / | / | / | / | 16.0
Cc1ccc(C2NC(=O)c3c(sc(C)c3C)N2)c(O)c1 (configuration not stated) | 5.7 | / | -8.1 | / | / | 98.1*
CN(CC(=O)Nc1ccc(F)cc1)C(=O)COC(=O)c1cccc(N(C)C)c1 | 0.9 | -0.5 | -2.6 | -10.1 | -8.8 | 47.9*
CN(CC(=O)Nc1ccc(F)cc1)C(=O)COC(=O)c1ccccc1 | 6.0 | 0.3 | -9.3 | -14.9 | 6.4 | -0.1
CCN(CC)C(=O)c1ccc(NS(=O)(=O)c2ccc(/C=C/C(=O)O)cc2)cc1 | / | 3.1 | / | / | / | /
CCN(CC)C(=O)c1ccc(NS(=O)(=O)c2ccccc2)cc1 | 103.3* | / | 2.3 | 2.1 | -5.7 | 6.9
C(#Cc1ccccc1)Cn1nnc2ccccc21 | -41.8 | / | 1.0 | -16.8 | -2.0 | 59.7*
O=C(O)Cn1nnc2ccccc21 | / | / | -7.0 | 13.2 | 2.0 | /
O=C(Cc1cccnc1)N[C@@H]1CC[C@H](CCNS(=O)(=O)c2ccccc2Cl)O[C@@H]1CO | 5.5 | -0.8 | 4.5 | / | 3.1 | -2.6
Nc1c(C(=O)N/N=C/c2ccccc2)cnn1-c1ccccc1 | -22.6 | / | / | -19.8 | -2.0 | 48.5*
O=C(N/N=C\c1ccccc1)c1ccccc1-n1cccc1 | / | 2.2 | 1.6 | / | / | /
C[C@@H]1CN([C@H](C)CO)S(=O)(=O)c2ccc(Br)cc2O[C@H]1CN(C)Cc1ccncc1 | -40.9 | 0.0 | 20.5 | 6.6 | 2.4 | 6.8
Cc1noc(C)c1NC(=O)Nc1ccc2c(c1)C(=O)N([C@@H](C)CO)C[C@H](C)[C@@H](CN(C)Cc1ccncc1)OCCCC[C@H](C)O2 | / | -0.3 | 8.3 | -5.8 | 1.3 | -2.8
CCn1c(=N)n(CC(=O)c2ccc(Br)s2)c2ccccc21 | -41.7 | 4.4 | -2.2 | -7.9 | -1.3 | 59.3*
Cc1cc(/C=C2/NC(=O)N(c3ccccc3)C2=O)c(C)n1-c1cccnc1 | -1.1 | 0.6 | / | -9.5 | -4.2 | 70.7*
Cc1cc(/C=C2/NC(=S)NC2=O)c(C)n1-c1cccnc1 | -5.0 | / | 2.7 | / | / | ?
O=C(O)c1ccc2oc(SCC(=O)N3CCCCC3)nc2c1 | / | / | / | / | / | 59.4*
O=C(CSc1nc2cc(Cl)ccc2o1)N1CCOCC1 | -14.6 | / | -9.7 | 8.9 | / | 17.0
O=C(c1cnccn1)N1CC(=O)N2[C@H](CO)[C@@H](c3ccc(/C=C/c4ccccc4)cc3)[C@@H]2C1 | / | 0.1 | -5.1 | / | / | /
C=CCN=C(NC#N)SCc1ccccc1 | 40.4 | / | 1.4 | -6.3 | -4.5 | -2.3
C=CCN=C(NC#N)SCC(=O)c1cccc(OC)c1 | 111.5* | / | 25.2 | / | / | -5.0
Cc1ccccc1-c1ccc2c(c1)O[C@H](CN(C)C(=O)Nc1ccc(F)cc1)[C@H](C)CN([C@@H](C)CO)S2(=O)=O | -55.9 | -0.2 | -3.1 | / | / | -2.4
C[C@H](CO)N1C[C@H](C)[C@H](CN(C)CC2CCCCC2)Oc2ccc(NC(=O)CCCN(C)C)cc2CC1=O | 1.4 | -3.0 | -7.2 | -27.9 | 3.1 | -0.2
CCOc1ccc2nc(SCC(=O)c3ccccc3)sc2c1 | -20.4 | / | -1.9 | 14.4 | 7.4 | 47.1*
CCOc1ccc2nc(SCC(=O)NC3CC3)sc2c1 | 4.4 | 1.2 | / | -10.1 | 4.3 | 8.0
CCOc1ccc2nc(SCc3ccccc3C#N)sc2c1 | 8.8 | / | -2.5 | -12.5 | -3.6 | 61.0*

Compound activity: PubChem BioAssay, Broad Institute
